# Values of other authors as cited in US7229999B2, “Pyridine-3-carboxamide derivatives as CB1 inverse agonists” (Hoffmann-La Roche Inc., priority 2005, dated 2007).
# Chains of the proteins cited; added tags and fusions are not shown.
# UniProt P47746, whole entry: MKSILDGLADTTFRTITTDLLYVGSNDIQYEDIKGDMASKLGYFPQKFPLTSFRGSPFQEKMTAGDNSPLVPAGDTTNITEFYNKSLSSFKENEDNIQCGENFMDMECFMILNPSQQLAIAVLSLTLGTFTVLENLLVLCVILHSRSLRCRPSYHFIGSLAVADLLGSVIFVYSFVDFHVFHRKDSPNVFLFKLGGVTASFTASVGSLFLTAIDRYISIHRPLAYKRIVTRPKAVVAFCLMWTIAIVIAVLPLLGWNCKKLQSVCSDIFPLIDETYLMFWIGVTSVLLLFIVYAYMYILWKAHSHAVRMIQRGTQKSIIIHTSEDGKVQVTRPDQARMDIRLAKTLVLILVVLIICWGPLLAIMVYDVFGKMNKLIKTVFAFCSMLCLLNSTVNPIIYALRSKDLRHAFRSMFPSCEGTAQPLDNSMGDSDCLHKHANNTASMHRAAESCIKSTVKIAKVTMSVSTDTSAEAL
# Molecular target: CB1 receptor (Mus musculus, UniProt P47746)
# Conditions: wild-type versus CB1 receptor knockout mice; cited from earlier work
smiles,measurement,value
Cc1c(C(=O)NN2CCCCC2)nn(-c2ccc(Cl)cc2Cl)c1-c1ccc(Cl)cc1 [SR 141716],food intake,reduces food intake in wild-type but not knockout mice
